Assay: Pharmacokinetics and oral bioavailability in the beagle dog
Settings: male beagle dogs, i.v. 1 mg/kg and oral 5 mg/kg

Cc1cnc(C(=O)c2ncnc3[nH]ccc23)c(NS(=O)(=O)c2ccc(Cl)c(C(F)(F)F)c2)c1 [Compound 5, 4-Chloro-N-[5-methyl-2-(7H-pyrrolo[2,3-d]pyrimidine-4-carbonyl)-pyridin-3-yl]-3-trifluoromethyl-benzenesulfonamide]
tolerability (signs of ill health and mortality): well tolerated by the beagle dogs with no gross signs of ill health or mortality

Reference: US9394307B2, “Fused heteroaryl pyridyl and phenyl benzenesuflonamides as CCR2 modulators for the treatment of inflammation” (ChemoCentryx, Inc., priority 2007, dated 2016)
